Measurements as given in patent US9890152B2 (Genentech, Inc., priority 2012, dated 2018).

Protein sequences, listed by entry. Tags and fused reporters are not part of them. Residues count along the entry.
UniProt P00533, 25-1210 T790M/L858R limits assumed: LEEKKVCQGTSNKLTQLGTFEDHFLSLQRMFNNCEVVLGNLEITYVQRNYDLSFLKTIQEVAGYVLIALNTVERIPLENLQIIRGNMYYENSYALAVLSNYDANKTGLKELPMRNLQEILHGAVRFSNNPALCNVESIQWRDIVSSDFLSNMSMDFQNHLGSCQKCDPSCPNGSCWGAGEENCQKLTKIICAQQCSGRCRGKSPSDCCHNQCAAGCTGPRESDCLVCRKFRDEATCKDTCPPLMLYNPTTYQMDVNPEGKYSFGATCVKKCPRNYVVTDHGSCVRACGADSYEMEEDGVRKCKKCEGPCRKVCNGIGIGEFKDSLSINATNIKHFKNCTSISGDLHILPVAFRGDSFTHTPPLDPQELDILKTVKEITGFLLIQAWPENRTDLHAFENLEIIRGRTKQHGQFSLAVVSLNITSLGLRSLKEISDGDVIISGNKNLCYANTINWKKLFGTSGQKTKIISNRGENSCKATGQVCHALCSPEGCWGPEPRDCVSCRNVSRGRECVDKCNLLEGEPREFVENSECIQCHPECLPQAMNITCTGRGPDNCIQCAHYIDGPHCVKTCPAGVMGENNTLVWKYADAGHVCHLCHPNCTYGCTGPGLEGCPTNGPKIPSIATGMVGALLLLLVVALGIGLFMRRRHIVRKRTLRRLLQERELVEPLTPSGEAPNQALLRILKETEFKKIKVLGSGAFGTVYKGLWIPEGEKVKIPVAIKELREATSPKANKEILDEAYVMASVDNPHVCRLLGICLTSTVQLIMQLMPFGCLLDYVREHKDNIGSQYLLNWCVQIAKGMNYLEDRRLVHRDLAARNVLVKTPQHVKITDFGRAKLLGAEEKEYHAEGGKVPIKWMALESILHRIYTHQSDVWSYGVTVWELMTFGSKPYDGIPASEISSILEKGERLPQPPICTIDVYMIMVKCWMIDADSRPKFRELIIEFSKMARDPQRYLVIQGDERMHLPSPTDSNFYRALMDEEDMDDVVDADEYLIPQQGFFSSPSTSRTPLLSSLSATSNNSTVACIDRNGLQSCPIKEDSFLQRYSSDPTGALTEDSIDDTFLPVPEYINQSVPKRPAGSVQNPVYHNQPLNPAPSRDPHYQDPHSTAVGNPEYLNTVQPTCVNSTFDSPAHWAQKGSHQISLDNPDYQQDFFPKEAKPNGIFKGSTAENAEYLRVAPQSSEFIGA

Each compound was assayed against EGFR T790M L858R (Homo sapiens, UniProt P00533, L858R/T790M) (assay: biochemical). Details: EGFR(T790M/L858R) Ki (μM), 5 μM ATP, 30 min, room temperature; apparent Ki (Morrison) converted by Cheng-Prusoff, Km of ATP 1.3 μM.

Row | SMILES | Ki [µM]
1 | CCc1nc2cnc(Nc3ccnc(N4CCC(OC)CC4)n3)cc2n1C(C)C [Example 4, (2-Ethyl-1-isopropyl-1H-imidazo[4,5-c]pyridin-6-yl)-[2-(4-methoxypiperidin-1-yl)pyrimidin-4-yl]amine] | 0.0174
2 | CNc1nc2cnc(Nc3ccnc(N4CCC(OC)CC4)n3)cc2n1C(C)C [Example 6, 1-Isopropyl-N^6-[2-(4-methoxypiperidin-1-yl)pyrimidin-4-yl]-N^2-methyl-1H-imidazo[4,5-c]pyridine-2,6-diamine] | 0.0105
3 | CCOCCOCc1nc2cnc(Nc3ccnc(N4CCC(OC)CC4)n3)cc2n1C(C)C [Example 7, [2-(2-Ethoxyethoxymethyl)-1-isopropyl-1H-imidazo[4,5-c]pyridin-6-yl]-[2-(4-methoxypiperidin-1-yl)pyrimidin-4-yl]amine] | 0.111
4 | COC1CCN(c2nccc(Nc3cc4c(cn3)nc(CN(C)C)n4C(C)C)n2)CC1 [Example 9, (2-Dimethylaminomethyl-1-isopropyl-1H-imidazo[4,5-c]pyridin-6-yl)-[2-(4-methoxypiperidin-1-yl)pyrimidin-4-yl]amine formate salt] | 0.178
5 | COC1CCN(c2nccc(Nc3cc4c(cn3)nc(CO)n4C(C)C)n2)CC1 [Example 10, {1-Isopropyl-6-[2-(4-methoxypiperidin-1-yl)pyrimidin-4-ylamino]-1H-imidazo[4,5-c]pyridin-2-yl}methanol] | 0.0186
6 | COc1nc2cnc(Nc3ccnc(N4CCC(OC)CC4)n3)cc2n1C(C)C [Example 11, (1-Isopropyl-2-methoxy-1H-imidazo[4,5-c]pyridin-6-yl)-[2-(4-methoxypiperidin-1-yl)pyrimidin-4-yl]amine] | 0.0412
7 | CC(C)n1cnc2cnc(Nc3ccnc(N4CCc5[nH]ncc5C4)n3)cc21 [Example 12, (1-Isopropyl-1H-imidazo[4,5-c]pyridin-6-yl)-[2-(1,4,6,7-tetrahydropyrazolo[4,3-c]pyridin-5-yl)pyrimidin-4-yl]amine] | 0.0445
8 | CC(C)n1cnc2cnc(Nc3ccnc(N4CCC(O)CC4)n3)cc21 [Example 13, 1-[4-(1-Isopropyl-1H-imidazo[4,5-c]pyridin-6-ylamino)pyrimidin-2-yl]piperidin-4-ol] | 0.097
9 | CC(C)n1cnc2cnc(Nc3ccnc(N4CCC5(CC4)CNC(=O)O5)n3)cc21 [Example 14, 8-[4-(1-Isopropyl-1H-imidazo[4,5-c]pyridin-6-ylamino)pyrimidin-2-yl]-1-oxa-3,8-diazaspiro[4.5]decan-2-one] | 0.0843
10 | CC(C)n1cnc2cnc(Nc3ccnc(N4CCn5ccnc5C4)n3)cc21 [Example 15, [2-(5,6-Dihydro-8H-imidazo[1,2-a]pyrazin-7-yl)pyrimidin-4-yl]-(1-isopropyl-1H-imidazo[4,5-c]pyridin-6-yl)amine] | 1.39
11 | CC(C)n1cnc2cnc(Nc3ccnc(N4CCN(S(C)(=O)=O)CC4)n3)cc21 [Example 16, (1-Isopropyl-1H-imidazo[4,5-c]pyridin-6-yl)-[2-(4-methanesulfonylpiperazin-1-yl)pyrimidin-4-yl]-amine] | 0.292
12 | COC1CN(c2nccc(Nc3cc4c(cn3)ncn4C(C)C)n2)C1 [Example 17, (1-Isopropyl-1H-imidazo[4,5-c]pyridin-6-yl)-[2-(3-methoxyazetidin-1-yl)pyrimidin-4-yl]amine] | 1.3
13 | COC1CCN(c2nccc(Nc3cc4c(cn3)ncn4C3CCOC3)n2)CC1 (stereo not drawn) [Example 18, [2-(4-Methoxypiperidin-1-yl)pyrimidin-4-yl]-[1-(tetrahydrofuran-3-yl)-1H-imidazo[4,5-c]pyridin-6-yl]amine] | 0.187
14 | COC1CCN(c2nccc(Nc3cc4c(cn3)ncn4C3CCOCC3)n2)CC1 [Example 19, [2-(4-Methoxypiperidin-1-yl)pyrimidin-4-yl]-[1-(tetrahydropyran-4-yl)-1H-imidazo[4,5-c]pyridin-6-yl]amine] | 0.0828
15 | CCn1cnc2cnc(Nc3ccnc(N4CCC(OC)CC4)n3)cc21 [Example 20, (1-Ethyl-1H-imidazo[4,5-c]pyridin-6-yl)-[2-(4-methoxypiperidin-1-yl)pyrimidin-4-yl]amine] | 0.123
16 | COC1CCN(c2nccc(Nc3cc4c(cn3)nc(-c3cn[nH]c3)n4C)n2)CC1 [Example 21, [2-(4-Methoxypiperidin-1-yl)pyrimidin-4-yl]-[1-methyl-2-(1H-pyrazol-4-yl)-1H-imidazo[4,5-c]pyridin-6-yl]amine] | 0.258
17 | COC1CCN(c2nccc(Nc3cc4nc(Cc5ccccc5F)n(C)c4cn3)n2)CC1 [Example 22, [2-(2-Fluorobenzyl)-3-methyl-3H-imidazo[4,5-c]pyridin-6-yl]-[2-(4-methoxypiperidin-1-yl)pyrimidin-4-yl]amine] | 1.04
18 | COC1CCN(c2nccc(Nc3cc4nc(-c5cn[nH]c5)n(C)c4cn3)n2)CC1 [Example 25, [2-(4-Methoxypiperidin-1-yl)pyrimidin-4-yl]-[3-methyl-2-(1H-pyrazol-4-yl)-3H-imidazo[4,5-c]pyridin-6-yl]amine dihydrochloride] | 1.01

Row | SMILES | Ki [µM]
19 | CC(C)n1cnc2cnc(Nc3ccnc(C4=CCN(S(C)(=O)=O)CC4)n3)cc21 [Example 27, (1-Isopropyl-1H-imidazo[4,5-c]pyridin-6-yl)-[2-(1-methanesulfonyl-1,2,3,6-tetrahydropyridin-4-yl)pyrimidin-4-yl]amine] | 0.158
20 | CC(C)n1cnc2cnc(Nc3ccnc(N4CCOCC4)n3)cc21 [Example 28, (1-Isopropyl-1H-imidazo[4,5-c]pyridin-6-yl)-(2-morpholin-4-ylpyrimidin-4-yl)amine] | 0.335
21 | CC(C)n1cnc2cnc(Nc3ccnc(N4CC[S+]([O-])CC4)n3)cc21 [Example 29, 4-(4-((1-isopropyl-1H-imidazo[4,5-c]pyridin-6-yl)amino)pyrimidin-2-yl)thiomorpholine 1-oxide] | 0.557
22 | CC(C)n1cnc2cnc(Nc3ccnc(N4CCS(=O)(=O)CC4)n3)cc21 [Example 30, 4-(4-((1-isopropyl-1H-imidazo[4,5-c]pyridin-6-yl)amino)pyrimidin-2-yl)thiomorpholine 1,1-dioxide] | 1.44
23 | COC1CCN(c2nccc(Nc3cc4c(ccn4CC(C)(C)C(N)=O)cn3)n2)CC1 [Example 31, 3-{6-[2-(4-Methoxypiperidin-1-yl)pyrimidin-4-ylamino]pyrrolo[3,2-c]pyridin-1-yl}-2,2-dimethylpropionamide] | 0.192
24 | Cc1nc2cnc(Nc3ccnc(N4CCC(O)C(O)C4)n3)cc2n1C(C)C (stereo not drawn) [Example 34, 1-[4-(1-Isopropyl-2-methyl-1H-imidazo[4,5-c]pyridin-6-ylamino)pyrimidin-2-yl]piperidine-3,4-diol] | 0.113
25 | CC(C)n1cnc2cnc(Nc3ccnc(N4CC5CCC(C4)O5)n3)cc21 [Example 35, N-(2-(8-Oxa-3-aza-bicyclo[3.2.1]octan-3-yl)pyrimidin-4-yl)-1-isopropyl-1H imidazo[4,5-c]pyridin-6-amine] | 0.211
26 | CC(C)n1cnc2cnc(Nc3ccnc(N4CC5(C4)CN(S(C)(=O)=O)C5)n3)cc21 [Example 38, 1-Isopropyl-N-(2-(6-(methylsulfonyl)-2,6-diazaspiro[3.3]heptan-2-yl)pyrimidin-4-yl)-1H-imidazo[4,5-c]pyridin-6-amine] | 1.83
27 | CC(C)n1cnc2cnc(Nc3ccnc(NCCS(C)(=O)=O)n3)cc21 [Example 39, N^4-(1-isopropyl-1H-imidazo[4,5-c]pyridin-6-yl)-N2-(2-(methylsulfonyl)ethyl)pyrimidine-2,4-diamine] | 1.08
28 | CC(C)n1cnc2cnc(Nc3ccnc(Nc4cnn(C)c4)n3)cc21 [Example 40, N^4-(1-Isopropyl-1H-imidazo[4,5-c]pyridin-6-yl)-N^2-(1-methyl-1H-pyrazol-4-yl)pyrimidine-2,4-diamine] | 0.82
29 | COC1CCN(c2nccc(Nc3cc4c(cn3)nc(C(F)(F)F)n4C(C)C)n2)CC1 [Example 41, 1-Isopropyl-N-(2-(4-methoxypiperidin-1-yl)pyrimidin-4-yl)-2-(trifluoromethyl)-1H-imidazo[4,5-c]pyridin-6-amine] | 0.119
30 | CC(C)n1cnc2cnc(Nc3ccnc(Nc4cn[nH]c4)n3)cc21 [Example 42, N^4-(1-Isopropyl-1H-imidazo[4,5-c]pyridin-6-yl)-N^2-(1H-pyrazol-4-yl)pyrimidine-2,4-diamine] | 0.173
31 | CC(C)n1cnc2cnc(Nc3ccnc(N4CCC(OC(F)(F)F)CC4)n3)cc21 [Example 43, 1-Isopropyl-N-(2-(4-(trifluoromethoxy)piperidin-1-yl)pyrimidin-4-yl)-1H-imidazo[4,5-c]pyridin-6-amine] | 0.312
32 | CC(C)n1cnc2cnc(Nc3ccnc(N4C[C@@H]5[C@@H](N)[C@@H]5C4)n3)cc21 [Example 44, N-(2-((1R,5S,6s)-6-Amino-3-azabicyclo[3.1.0]hexan-3-yl)pyrimidin-4-yl)-1-isopropyl-1H-imidazo[4,5-c]pyridin-6-amine] | 0.587
33 | CN[C@H]1[C@@H]2CN(c3nccc(Nc4cc5c(cn4)ncn5C(C)C)n3)C[C@@H]21 [Example 45, 1-Isopropyl-N-(2-((1R,5S,6s)-6-(methylamino)-3-azabicyclo[3.1.0]hexan-3-yl)pyrimidin-4-yl)-1H-imidazo[4,5-c]pyridin-6-amine] | 0.669
34 | Cc1nc2cnc(Nc3ccnc(N4CCc5[nH]ncc5C4)n3)cc2n1C(C)C [Example 46, N-(2-(6,7-Dihydro-1H-pyrazolo[4,3-c]pyridin-5(4H)-yl)pyrimidin-4-yl)-1-isopropyl-2-methyl-1H-imidazo[4,5-c]pyridin-6-amine] | 0.0122
35 | CC(C)n1cnc2cnc(Nc3ccnc(N4C[C@@H]5[C@@H](CO)[C@@H]5C4)n3)cc21 [Example 47, ((1R,5S,6r)-3-(4-((1-isopropyl-1H-imidazo[4,5-c]pyridin-6-yl)amino)pyrimidin-2-yl)-3-azabicyclo[3.1.0]hexan-6-yl)methanol] | 0.522
36 | COC[C@@H]1[C@H]2CN(c3nccc(Nc4cc5c(cn4)ncn5C(C)C)n3)C[C@@H]12 [Example 48, 1-isopropyl-N-(2-((1R,5S,6r)-6-(methoxymethyl)-3-azabicyclo[3.1.0]hexan-3-yl)pyrimidin-4-yl)-1H-imidazo[4,5-c]pyridin-6-amine] | 1.62

Counter-ions that a name gives are not always drawn.
